Reference: US7618945B2, “Heteroaryl peptidomimetics as thrombin receptor antagonists” (Janssen Pharmaceutica, N.V., priority 2002, dated 2009)

By UniProt entry, the sequences of proteins in these tests, tags left out. Residues count along the entry.
UniProt P25116, 22-425 limits assumed: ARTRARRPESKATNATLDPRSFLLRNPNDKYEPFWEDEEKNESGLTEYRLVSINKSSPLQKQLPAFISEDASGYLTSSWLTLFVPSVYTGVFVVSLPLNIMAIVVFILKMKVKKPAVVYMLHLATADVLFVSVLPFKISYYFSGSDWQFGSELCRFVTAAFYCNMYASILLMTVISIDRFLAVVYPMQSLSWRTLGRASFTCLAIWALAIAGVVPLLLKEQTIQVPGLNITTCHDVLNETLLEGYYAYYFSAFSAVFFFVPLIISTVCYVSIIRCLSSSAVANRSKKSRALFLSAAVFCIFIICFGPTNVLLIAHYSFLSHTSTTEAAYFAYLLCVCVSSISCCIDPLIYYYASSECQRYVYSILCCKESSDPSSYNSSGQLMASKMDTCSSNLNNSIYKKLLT

Assays:
[1] = target: thrombin receptor (PAR-1) (Homo sapiens, UniProt P25116); experiment: In vitro thrombin receptor binding assay (CHRF membranes); details: read-out: Thrombin Receptor Binding IC50, tritiated 721-40 (Ser-pFPhe-Har-Leu-Har-Lys-Tyr-NH2), 30 min incubation
Procedure: In Vitro Thrombin Receptor Binding Assay
CHRF membranes (Jones, Biochim. Biophys. Acta 1992, 1136, 272) are thawed from −70° C., centrifuged at maximum speed for 5 min, washed twice with binding buffer (50 mM HEPES containing 5 mM MgCl2 and 0.1% BSA), and re-suspended in binding buffer ([…]). 100 μL of membranes are added to the 24-Wallac plates and delivered to the Tomtech apparatus. In a typical experiment, 6 μL of samples (from a 125 μg/mL intermediary plate, 20% DMSO) and 44 μL buffer are delivered to the plates (final conc. of compounds is 3.7 μg/mL, 0.6% DMSO). Similarly, 6 μL 20% DMSO and 44 μL buffer are delivered to both column 1 (NSB) and column 12 (TB). 10 μL Ser-pFPhe-Har-Leu-Har-Lys-Tyr-NH2 (721-40; 500 μM in deionized water) is added to column 1. 50 μL tritiated 721-40 (specific activity 46 Ci/mmol) is added to all the wells. The plates are mixed well for 20 seconds, incubated for 30 min, and then harvested with 10 mM HEPES/138 mM NaCl using the Skatron harvester. The filters (GF/C Brandel FPXLR 296) are presoaked 3 h in 0.5% polyethylenimine in HEPES/0.1M N-acetylglucosamine) are set in saran wrap and dried for 3 min in the microwave, and placed in sample bags (Wallac 1450-432). 4.5 mL scintillation fluid (Wallac, Betaplate Scint 1205-440) is added. The bags are sealed, placed in filter cassettes (Wallac 1450-104), and analyzed on the microbeta counter.
(§1) Table 3 contains IC50 values (μM) of the compounds against platelet aggregation stimulated by thrombin and IC50 values (μM) in a thrombin receptor (PAR-1) binding assay.

gel-filtered platelets [2] = experiment: Inhibition of SFLLRN-NH2-induced gel-filtered platelet aggregation; details: read-out: Platelet Aggregation SFLLRN-NH2 IC50, aggregation initiated by SFLLRN-NH2 (2 μM), OD 650 at 0 and 5 min
Procedure: (§2) In Vitro Inhibition Of Thrombin- and SFLLRN-NH2-Induced Gel-Filtered Platelet Aggregation Assay
(§3) Platelet Rich Plasma concentrate (Biological Specialties, Inc) is gel filtered (Sepharose 2B, Pharmacia) in Tyrode's buffer (140 mM NaCl, 2.7 mM KCl, 12 mM NaHCO3, 0.76 mM Na2HPO4, 5.5 mM dextrose, 5.0 mM Hepes, and 2 mg/ml BSA @ pH 7.4). The gel-filtered platelets are diluted with Tyrode's buffer (143,000 platelets/μl, final platelet count per well), compound solution in buffer, and 2 mM CaCl2 in a 96 well plate. Platelet aggregation is initiated by the addition of human α-thrombin (American Diagnostica, 0.113 nM-0.187 nM) or SFLLRN-NH2 (2 μM) shown to achieve 80% aggregation (0.015-0.025 NIH U/ml, 0.113 nM-0.187 nM). The assay plate is stirred constantly. Platelet aggregation is monitored by intermittently placing the plate in a microplate reader (Molecular Devices) to read optical density ([…], ΔSOFT) at 0 and 5 minutes after the thrombin addition. Aggregation was calculated to be the decrease in optical density between the time 0 and 5 minute measurements. All samples were tested in duplicate wells on the same plate.

gel-filtered platelets [3] = experiment: Inhibition of thrombin-induced gel-filtered platelet aggregation; details: read-out: Platelet Aggregation Thrombin IC50, aggregation initiated by human α-thrombin 0.113 nM-0.187 nM, OD 650 at 0 and 5 min
Procedure: as §2, §3, §1

Structure (SMILES)	IC50 [1]	IC50 (gel-filtered platelets [2])	IC50 (gel-filtered platelets [3])
CC(=O)N[C@@H](CCCNC(=N)N)C(=O)N[C@@H](Cc1ccccc1)C(=O)Nc1ccc2c(CNC3CCCC3)cn(Cc3ccc(F)cc3)c2c1	5.2 µM	4 µM	50.1 µM
CCCNCc1cn(Cc2ccc(F)cc2)c2ccc(NC(=O)[C@H](Cc3ccccc3)NC(=O)[C@H](CCCNC(=N)N)NC(=O)Nc3ccccc3)cc12	> 100 µM		
CCCNCc1cn(Cc2ccc(F)cc2)c2ccc(NC(=O)[C@H](Cc3ccccc3)NC(=O)[C@H](CCCNC(=N)N)NC(=O)Nc3ccc(OC)cc3)cc12	> 100 µM		
CC(=O)N[C@@H](CCCNC(=N)N)C(=O)N[C@@H](Cc1ccccc1)C(=O)Nc1ccc2c(CN)cn(Cc3ccc(F)cc3)c2c1	> 100 µM		
CCCNCc1cn(Cc2ccc(F)cc2)c2ccc(NC(=O)[C@H](Cc3ccccc3)NC(=O)[C@H](CCCNC(=N)N)NC(=O)Nc3ccc(Cl)cc3)cc12	> 100 µM		
CCCNCc1cn(Cc2ccc(F)cc2)c2ccc(NC(=O)[C@H](Cc3ccccc3)NC(=O)[C@H](CCCNC(=N)N)NC(=O)Nc3ccc(F)cc3)cc12	> 100 µM		
CCCNCc1cn(Cc2ccc(F)cc2)c2ccc(NC(=O)[C@H](Cc3ccccc3)NC(=O)[C@H](CCCNC(=N)N)NC(=O)OCc3ccccc3)cc12	42 µM		
CCCNCc1cn(Cc2ccc(F)cc2)c2ccc(NC(=O)[C@H](Cc3ccccc3)NC(=O)[C@H](CCCNC(=N)N)NC(=O)N3CCOCC3)cc12	> 100 µM		
